Measured values: PMC6557641

Target: Cdc8-coated F-actin (chicken | fission yeast (S. pombe)) (UniProt P68139)
Assay: single-molecule TIRF microscopy (spot density); 1.5 μM Mg-ATP actin (Alexa 488-labeled), 500 nM Ain1 (0.5% TMR-labeled) alone or with 1 μM (dimer) unlabeled Cdc8; Ain1 events/μm/s on bundles from kymographs; room temperature

fold of Ain1 binding events against uncoated F-actin: 3 fold
Substance: α-actinin Ain1, wild type (His-tagged) (from UniProt O13728 1-621) (natural protein)
